Data: patent US10676430B2, “Non-alpha substituted peroxy acids and uses thereof” (Stepan Company, priority 2016, dated 2020)

Assay: Peracid stability by standard titration method
Type: physicochemical
Conditions: for Peracid loss/day: 1.00% H2SO4, between day 6 and day 13; for Peracid at day 6 / Peracid at day 13: reaction mixture 20.00% organic acid, 7.50% H2O2, 1.00% H2SO4, DI water
Description: […] The H2O2 used is commercially available from Arkema under the tradename Perxoal 50EG and includes a small amount of stabilizer. The reaction proceeded until equilibrium was reached, in accordance with the reaction scheme recited above. The starting carboxylic acids were acetic acid, 3-hydroxy propanoic acid, 3-chloro-propanoic acid, 2-hydroxy-acetic acid (glycolic acid), 2-hydroxy-propanoic acid (lactic acid) and 2-oxo-propanoic acid. The 3-hydroxy propanoic acid and 3-chloro-propanoic acid generated non alpha-substituted peracids that are examples of the present technology. The other starting carboxylic acids generated peracids that are not within Formula 1 or Formula 2 and are comparative peracid examples.
Each of the resulting peracids were evaluated for odor. In addition, the resulting peracids were evaluated for stability using a standard titration method known to those skilled in the art.

Compound	Peracid loss/day	Peracid at day 6	Peracid at day 13
CC(O)C(=O)OO (stereo not drawn) [2-HPPA, perlactic acid]	1.381%	1.690%	1.530%
CC(=O)C(=O)OO [2-OPPA]	12.644%	0.290%	0.030%
